{"source": "patent US20220387358A1", "about": "“CERAMIDE ANALOG SACLAC MODULATES SPHINGOLIPID LEVELS AND MCL-1 SPLICING TO INDUCE APOPTOSIS IN ACUTE MYELOID LEUKEMIA” (University of Virginia Patent Foundation, priority 2019, published 2022)", "origin": "cited, not measured here", "system": "FLT3", "conditions": "FLT3-ITD-positive patients; cited from earlier work"}
{"smiles": "CC(C)(C)c1cc(NC(=O)Nc2ccc(-c3cn4c(n3)sc3cc(OCCN5CCOCC5)ccc34)cc2)no1", "note": "[quizartinib]", "values": [{"measurement": "composite complete remission", "result": "about 50%"}, {"measurement": "patients achieving complete remission", "result": "about 5%"}]}
